The record followed here is patent publication US8624027B2, “Combination therapy for treating cancer and diagnostic assays for use therein” (AbbVie Inc., priority 2005, dated 2014).

Sequences of proteins named here, by UniProt entry; tags and fusion partners are left off. A line that says so, or that is headed by a name, gives the form on record, which may keep a tag or linker.
UniProt P10415, with tags, fused parts or gaps with the stated changes: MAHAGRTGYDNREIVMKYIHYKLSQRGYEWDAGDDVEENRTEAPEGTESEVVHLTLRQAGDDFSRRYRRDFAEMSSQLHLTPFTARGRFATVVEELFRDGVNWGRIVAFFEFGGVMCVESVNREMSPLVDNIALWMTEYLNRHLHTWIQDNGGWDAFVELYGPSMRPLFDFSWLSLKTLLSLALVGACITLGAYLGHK

In this experiment the target is T1, Bcl-2 protein (Homo sapiens, UniProt P10415, DELINS35-91DVEENRTEAPEGTESE, form not given).
T1 construct: fused on or other part: A short piece of the Bcl-xL (Q07817) loop replaces Bcl-2 loop residues 35-91; The C-terminal membrane anchor is absent
Kind of experiment: Bcl-2 binding affinity, fluorescence polarization with fluorescein-labeled BAX peptide. The note with it: Wang's equation, read-out: Target Binding Affinity Ki (Bcl-2). The protocol: Binding affinity of compounds having formula (II) to Bcl-2 protein is indicia of their inhibition of the activity of this protein. […] A mixture comprising 125 µL per well of assay buffer (20 mM phosphate buffer (pH 7.4), 1 mM EDTA, 50 mM NaCl, 0.05% PF-68), 10 nM of Bcl-2 protein (prepared according to the procedure described in PNAS 2001, 98, 3012-3017), 1 nM fluorescein-labeled BAX peptide (prepared in-house) and the DMSO solution of the representative EXAMPLE was shaken for 2 minutes and placed in a LJL Analyst (LJL Bio Systems, CA. Polarization was measured at room temperature using a continuous Fluorescein lamp (excitation 485 nm, emission 530 nm). The results are also shown in TABLE 1.
The compounds of interest and the internal standard were separated from each other and co-extracted contaminants on a 50×3 mm Keystone Betasil CN 5 μm column with an acetonitrile: 0.1% trifluoroacetic acid mobile phase (50:50, by volume) at a flow rate of 0.7 ml/min. Analysis was performed on a Sciex API 300™ Biomolecular Mass Analyzer using a heated nebulizer interface. Peak areas of the title compounds and internal standards were determined using the Sciex MacQuan™ software. […] The methods were generally linear over the range of the standard curve (correlation coefficients >0.99) with an estimated quantitation limit of 0.01 μg/mL. […]
On the technique in general: Polarisation of emitted light reports the rotation of a fluorescent probe.

A word on the Ki: it is a measure of affinity in units of concentration, obtained from inhibition or displacement. `CC1(C)CCC(c2ccc(Cl)cc2)=C(CN2CCN(c3ccc(C(=O)NS(=O)(=O)c4ccc(N[C@H](CCN5CCOCC5)CSc5ccccc5)c(S(=O)(=O)C(F)(F)F)c4)cc3)CC2)C1` [Example 1, N-(4-(4-((2-(4-chlorophenyl)-5,5-dimethyl-1-cyclohex-1-en-1-yl)methyl)piperazin-1-yl)benzoyl)-4-(((1R)-3-(morpholin-4-yl)-1-((phenylsulfanyl)methyl)propyl)amino)-3-((trifluoromethyl)sulfonyl)benzenesulfonamide]: the Ki is no more than 1 nM.
